# Assay results from article PMC2911657 (The Journal of Cell Biology, 2010).
# Amino acid sequences for entries named in this document (tags omitted).
# UniProt Q96GD4, whole entry: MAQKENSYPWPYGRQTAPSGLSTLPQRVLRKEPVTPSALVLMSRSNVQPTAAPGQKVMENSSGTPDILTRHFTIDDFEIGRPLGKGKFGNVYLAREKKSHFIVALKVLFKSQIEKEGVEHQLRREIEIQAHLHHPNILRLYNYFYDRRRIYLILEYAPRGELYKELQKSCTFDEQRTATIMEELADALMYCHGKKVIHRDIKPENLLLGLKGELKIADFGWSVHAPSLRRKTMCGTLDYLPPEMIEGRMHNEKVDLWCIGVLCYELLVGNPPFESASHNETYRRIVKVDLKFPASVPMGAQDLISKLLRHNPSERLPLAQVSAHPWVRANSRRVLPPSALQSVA
# Legend:
# [1] = biological target: human AURORA B1–344–INCENP835–903 complex (Homo sapiens, UniProt Q96GD4); assay: In vitro kinase assay on AURORA B–INCENP complex, substrate histone H3; assay type: biochemical
# [2] = system: P-S10-H3 (AURORA B substrate); assay: P-S10-H3 levels by Western blotting in mitotic HeLa cell lysates; assay type: cell-based, human
# HeLa cells [3] = assay: Cytokinesis, time-lapse experiment; assay type: cell-based, human
# HeLa cells [4] = assay: Spindle checkpoint: duration of mitotic arrest, time-lapse video microscopy; assay type: cell-based, human; details: 0.33 µM or 3.3 µM nocodazole
# MPS1 [5] = biological target: T1, MPS1 (Homo sapiens, UniProt P33981); assay: Kinetochore localization of MPS1, immunofluorescence; assay type: cell-based; details: 0.5 µM; nocodazole
# T1 sequence (P33981 1-857): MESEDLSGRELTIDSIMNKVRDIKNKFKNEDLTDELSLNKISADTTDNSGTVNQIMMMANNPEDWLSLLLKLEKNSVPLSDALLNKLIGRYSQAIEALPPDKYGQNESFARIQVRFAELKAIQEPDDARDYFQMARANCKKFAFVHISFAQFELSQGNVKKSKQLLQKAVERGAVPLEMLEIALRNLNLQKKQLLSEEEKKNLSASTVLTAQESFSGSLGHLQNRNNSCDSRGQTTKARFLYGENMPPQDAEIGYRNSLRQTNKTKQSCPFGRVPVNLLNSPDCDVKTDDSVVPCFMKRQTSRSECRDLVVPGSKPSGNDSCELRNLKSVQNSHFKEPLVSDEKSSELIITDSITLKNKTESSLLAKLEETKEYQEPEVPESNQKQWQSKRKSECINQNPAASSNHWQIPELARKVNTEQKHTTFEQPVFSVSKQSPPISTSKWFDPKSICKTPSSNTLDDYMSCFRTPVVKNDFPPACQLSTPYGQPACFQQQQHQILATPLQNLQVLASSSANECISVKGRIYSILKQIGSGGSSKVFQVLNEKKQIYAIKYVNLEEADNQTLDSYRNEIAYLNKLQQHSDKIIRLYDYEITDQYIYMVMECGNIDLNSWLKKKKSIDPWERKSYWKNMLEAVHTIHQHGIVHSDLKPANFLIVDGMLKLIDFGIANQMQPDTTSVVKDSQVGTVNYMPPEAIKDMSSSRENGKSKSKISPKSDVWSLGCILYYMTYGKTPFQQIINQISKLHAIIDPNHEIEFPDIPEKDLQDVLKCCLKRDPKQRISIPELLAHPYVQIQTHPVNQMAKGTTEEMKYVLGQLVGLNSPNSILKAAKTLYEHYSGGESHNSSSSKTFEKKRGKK
# [6] = system: P-S10-H3 (AURORA B substrate); details: immunofluorescence
# MPS1 [7] = biological target: T1, MPS1; details: 0.5 µM
structure (smiles),measurement,setting,value
c1nc2nc(Nc3ccc(N4CCOCC4)cc3)nc(NC3CCCCC3)c2[nH]1 [reversine],AURORA B IC50 above the IC50 of hesperadin,[1],~30 fold
same,concentration inhibiting P-S10-H3,[2],2–5 µM
same,concentration range in which cytokinesis is impaired,HeLa cells [3],2 to 5 µM
same,concentration at which spindle checkpoint override is complete,HeLa cells [4],1.0 µM
same,MPS1 kinetochore staining,MPS1 [5],strong kinetochore staining
same,concentration above which P-S10-H3 signal is no longer visible,[6],> 5 µM
same,inhibition of MPS1 autophosphorylation,MPS1 [7],completely inhibits
same,concentration above which AURORA B P-T232 phosphorylation is affected,AURORA B (P-T232),above 2 µM
